Assay results taken from ChEMBL document CHEMBL5113488, “Design, synthesis and antitumor activity study of a gemcitabine prodrug conjugated with a HDAC6 inhibitor” (Bioorg Med Chem Lett, 2022).

Protein sequences, listed by entry. Tags and fused reporters are not part of them. Lines headed by an entry give the natural chain unless they say otherwise; changes in a name come on top.
UniProt P04798: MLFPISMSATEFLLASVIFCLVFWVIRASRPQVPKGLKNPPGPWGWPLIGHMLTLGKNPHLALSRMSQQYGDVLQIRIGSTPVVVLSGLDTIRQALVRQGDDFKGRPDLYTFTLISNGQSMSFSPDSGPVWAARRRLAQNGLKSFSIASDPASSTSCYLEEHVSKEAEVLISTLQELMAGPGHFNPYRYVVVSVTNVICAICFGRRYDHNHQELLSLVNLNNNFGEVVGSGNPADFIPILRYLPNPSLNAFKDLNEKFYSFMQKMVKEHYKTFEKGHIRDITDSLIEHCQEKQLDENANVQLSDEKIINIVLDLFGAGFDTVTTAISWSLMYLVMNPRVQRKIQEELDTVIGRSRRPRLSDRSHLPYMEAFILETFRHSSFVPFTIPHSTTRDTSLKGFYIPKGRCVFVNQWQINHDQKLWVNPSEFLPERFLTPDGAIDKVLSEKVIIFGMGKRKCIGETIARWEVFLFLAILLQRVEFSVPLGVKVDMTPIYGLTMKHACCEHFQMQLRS
UniProt P05177: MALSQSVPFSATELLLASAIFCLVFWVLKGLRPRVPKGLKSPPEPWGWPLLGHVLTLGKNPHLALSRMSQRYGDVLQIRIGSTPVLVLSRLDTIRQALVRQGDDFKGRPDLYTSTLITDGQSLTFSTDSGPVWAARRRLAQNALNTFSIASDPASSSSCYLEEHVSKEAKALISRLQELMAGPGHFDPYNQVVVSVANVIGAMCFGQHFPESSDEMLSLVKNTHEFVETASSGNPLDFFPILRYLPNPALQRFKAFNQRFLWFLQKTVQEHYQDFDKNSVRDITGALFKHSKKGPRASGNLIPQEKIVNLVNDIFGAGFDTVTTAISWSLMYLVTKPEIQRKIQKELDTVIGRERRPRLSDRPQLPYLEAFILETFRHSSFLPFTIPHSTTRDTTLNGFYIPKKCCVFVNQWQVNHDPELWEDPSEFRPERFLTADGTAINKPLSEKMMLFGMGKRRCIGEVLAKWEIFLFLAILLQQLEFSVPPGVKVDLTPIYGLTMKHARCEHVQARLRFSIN

Biological target: Cytochrome P450 1A (Homo sapiens, UniProt P04798+P05177)
Test: Inhibition of CYP1A1/2-mediated metabolite formation in rat liver microsomes assessed as reduction in N-(1-((2R,4R,5R)-3,3-difluoro-4-hydroxy-5-(hydroxymethyl)tetrahydrofuran-2-yl)-2-oxo-1,2-dihydropyrimidin-4-yl)pentadecanamide metabolism; call rule not given here
Format: ADME, Microsome

inhibition (INH): Active
SMILES: O=c1cc(-c2ccccc2)oc2c1ccc1ccccc12 [ALPHA-NAPHTHOFLAVONE]
